Tested on: Ca2+ uptake of pig heart mitochondria
Assay: Ca2+ uptake assay using isolated pig heart mitochondria (atomic absorbance spectrometer)
Format: biochemical
Details: 100 μM CaCl2

carbonyl cyanide-p-trifluoromethoxyphenylhydrazone
effect on Ca2+ uptake activity of isolated pig heart mitochondria (in words): significantly inhibited

— publication PMC5511861, “DS16570511 is a small-molecule inhibitor of the mitochondrial calcium uniporter” (Cell Death Discovery, 2017)
